Sequences of proteins named here, by UniProt entry; tags and fusion partners are left off.
UniProt P23977, whole entry: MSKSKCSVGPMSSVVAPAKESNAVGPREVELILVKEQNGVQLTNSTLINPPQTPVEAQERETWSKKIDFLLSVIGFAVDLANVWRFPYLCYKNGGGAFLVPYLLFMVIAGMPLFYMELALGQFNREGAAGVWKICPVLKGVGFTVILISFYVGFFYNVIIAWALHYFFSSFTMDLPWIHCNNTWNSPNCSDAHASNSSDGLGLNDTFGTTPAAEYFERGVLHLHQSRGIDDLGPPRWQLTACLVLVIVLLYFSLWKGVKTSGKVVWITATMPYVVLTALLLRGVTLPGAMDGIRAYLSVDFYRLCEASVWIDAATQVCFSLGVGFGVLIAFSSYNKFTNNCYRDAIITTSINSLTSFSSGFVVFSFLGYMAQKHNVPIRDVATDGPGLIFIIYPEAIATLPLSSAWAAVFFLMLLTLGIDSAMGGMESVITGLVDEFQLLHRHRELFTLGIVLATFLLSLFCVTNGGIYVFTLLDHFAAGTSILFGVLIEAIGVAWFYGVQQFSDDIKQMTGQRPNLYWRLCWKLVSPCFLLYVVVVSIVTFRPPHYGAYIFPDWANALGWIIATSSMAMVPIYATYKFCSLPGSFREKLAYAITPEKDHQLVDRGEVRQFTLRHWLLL

According to ChEMBL document CHEMBL1148277, “Synthesis and pharmacological evaluation of 3-(3,4-dichlorophenyl)-1-indanamine derivatives as nonselective ligands for biogenic amine transporters” (J Med Chem, 2004):

Molecular target: Sodium-dependent dopamine transporter (Rattus norvegicus, UniProt P23977)
Test: Reuptake inhibitory activity against dopamine DA transporter

CNC1CC(c2ccc(Cl)c(Cl)c2)c2ccccc21 (stereo unspecified) [INDATRALINE]
Ki: 2 nM
